Test results reported in US11446342B2, “Composite probiotics and use thereof” (INFINITUS (CHINA) COMPANY LTD., priority 2019, dated 2022).

Tested on: mice having high-fat diet induced metabolic syndrome
Assay: Serum IFN-γ in high-fat diet-induced metabolic syndrome
Format: in vivo, C57BL/6J mice
Conditions: intragastric daily, high-fat feed; probiotics total 1.0×10^9 CFU/mL

SMILES: CN(CCOc1ccc(CC2SC(=O)NC2=O)cc1)c1ccccn1 (stereo not shown) [RH, rosiglitazone]
- extent of decrease of serum IFN-γ content compared with the HF group: 39.06 ng/L
